According to PubChem BioAssay AID504558 (Broad Institute, 2011):
This is a selection; strong and weak results do not stand in their true shares. Calls of active or inactive are those of the source. Rule as the data show it: active = inhibition above about 41%; inconclusive = no clear call, values can overlap the other calls; inactive = below that.

Assay: blockers of LMP1-induced NF-kB reporter signal – cell-based, luminescence, single point, primary screen (AID 504558);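 also: 0% = neutral control wells and 100% = reference inhibitor control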
Conditions: LMP1-induced NF-kappaB luciferase reporter cells, at 12.5 µM, active compounds read high

SMILES	inhibition
CN(C)C(=O)Oc1noc2ccccc12	inactive: 3.45%
O=c1c2cc([N+](=O)[O-])ccc2[nH]c2c([N+](=O)[O-])cc([N+](=O)[O-])cc12	inactive: 7.51%
O=P1(Nc2nc3ccc(Cl)cc3s2)COc2ccccc2O1 (centres undefined)	inactive: -9.95%
CCOc1ccc(C2=NCC(CBr)S2)cc1 (centres undefined)	inactive: -0.882%
CC(C)(C)C(=O)NC(Sc1ccccc1)C(Cl)(Cl)Cl (centres undefined)	inactive: 6.6%
CCc1cc(O)c([N+](=O)[O-])c(C)c1[N+](=O)[O-]	inactive: 2.36%
Cc1ccccc1CN(C)C(=O)COC(=O)C(O)(c1ccccc1)c1ccccc1	inactive: -4.81%
C[C@@H]1C=CCP(=O)(Oc2ccccc2)O1 (some centres undefined)	inactive: 4.98%
C[C@H]1OP(=O)(Oc2ccccc2)C[C@@H]2O[C@@H]21 (some centres undefined)	inactive: -2.41%
N#C/C(=C\c1ccc(N(CCBr)CCBr)cc1)C(N)=O	active: 51.3%
CC(=O)c1ccc(N2CC2c2ccncc2)cc1 (centres undefined)	inactive: -3.54%
COC(=O)C1(C)COP(=O)(NCc2ccccc2)OC1 (centres undefined)	inactive: 4.59%
CC(=O)Nc1ccc([As](=O)(O)O)c(O)c1	inactive: -10.4%
CC(=O)Nc1ccc(Oc2c([N+](=O)[O-])cc([N+](=O)[O-])cc2[N+](=O)[O-])cc1	inactive: -4.08%
CN(C(=O)Cc1ccc(Cl)c(Cl)c1)[C@H]1CCCC[C@H]1N1CCCC1	inactive: 1.69%
Cc1ccc(N/C(=N/P(=O)(N2CCOCC2)N2CCOCC2)N2CCOCC2)cc1	inactive: -1.77%
NC(=O)c1cc([N+](=O)[O-])cc([N+](=O)[O-])c1N	inactive: 6.2%
Clc1ccc(Cl)c(NC2=NCC(CBr)S2)c1 (centres undefined)	inactive: -4.29%
CN1CCCC(OC(=O)C(c2ccccc2)c2ccccc2)C1 (centres undefined)	inactive: -9.82%
COc1ccccc1OP(=O)(Nc1ccc(C)cn1)Oc1ccccc1OC	inactive: -3.44%
Oc1ccccc1CNc1ccccn1	inactive: -0.0275%
O=C(NC(Sc1ccncn1)C(Cl)(Cl)Cl)c1ccccc1 (centres undefined)	inactive: -0.938%

SMILES	inhibition
CC(C)CC(=O)NC(Sc1ccc(Cl)cc1)C(Cl)(Cl)Cl (centres undefined)	inactive: -11.5%
Nc1cc(N)c2nonc2c1[N+](=O)[O-]	inactive: 2.31%
CN(C)P(=O)(N(C)C)n1c(Nc2ccccc2)nnc1-c1ccccc1	inactive: -2.15%
O=P(Nc1nc2ccc(Cl)cc2s1)(c1ccccc1)c1ccccc1	inactive: -2.02%
O=C(O)c1ccccc1[As](=O)(O)O	inactive: -3.26%
CC(=O)Nc1ccc([As](=O)(O)O)cc1	inactive: 1.41%
CCCC1OP(N)(=O)OCC1CC (centres undefined)	inactive: -6.35%
CCOP(=O)(Nc1ccccc1)OCC	inactive: 2.16%
Cc1cc(SC(NC(=O)c2ccc(F)cc2)C(Cl)(Cl)Cl)ncn1 (centres undefined)	inactive: -8.64%
Cc1ccc(NP(=O)(Oc2ccccc2F)Oc2ccccc2F)nc1	inactive: 4.18%
CN(C(=O)Cc1ccc(Cl)c(Cl)c1)[C@H]1CCCC[C@@H]1N1CCCC1	active: 84%
Nc1cccc2ccc([As](=O)(O)O)cc12	inactive: -8.2%
CCN(N=Nc1nonc1N)c1nonc1N	inactive: 7.89%
O=P1(N(CCCl)CCCl)OCCCS1 (centres undefined)	inactive: -7.04%
O=C(Nc1cc([As](=O)(O)O)ccc1O)c1ccccc1	inactive: -4.47%
O=[N+]([O-])c1ncn(CCn2ncnc2[N+](=O)[O-])n1	inactive: 5.48%
CC(C)(C)C(=O)NC(Sc1ccncn1)C(Cl)(Cl)Cl (centres undefined)	inactive: 0.96%
O=C(O)CNc1ccc([As](=O)(O)O)cc1	inactive: 5.2%
O=[N+]([O-])c1cccc(NC2=NCC(CBr)S2)c1 (centres undefined)	inactive: -4.85%
COC(=O)C1(C)COP(=O)(Nc2ccccc2)OC1 (centres undefined)	inactive: 2.32%
COc1ccc(C2=NCC(CBr)S2)cc1 (centres undefined)	inactive: -9.18%
Cc1ccc(NP(=O)(Oc2ccccc2)Oc2ccccc2)nc1	inactive: 1.3%

SMILES	inhibition
CCc1nc2c(n1)c1c(non1O)c1c2no[n+]1[O-]	inactive: -28.5%
O=[N+]([O-])c1cc([N+](=O)[O-])c(CCNc2ccccc2)c([N+](=O)[O-])c1	inactive: 1.23%
O=[N+]([O-])c1cccc2n[nH]nc12	inactive: -0.0685%
CC(=O)N1C2C3N(C(C)=O)C1C1N(C(C)=O)C(C(N1C(C)=O)N3C(C)=O)N2C(C)=O	inactive: 5.4%
CCN(/C(=N/P(=O)(N1CCOCC1)N1CCOCC1)N1CCOCC1)c1ccc(OC)cc1	inactive: -9.99%
Nc1ccc([As](=O)(O)c2ccc(N)cc2)cc1	inactive: -1.98%
C[N+]1=C2C=CC=CC=C2SC12C([N+](=O)[O-])=CC([N+](=O)[O-])=C[C-]2[N+](=O)[O-] (centres undefined)	inactive: -43.2%
c1cc(-c2nn[nH]n2)ccc1-c1nn[nH]n1	inactive: -5.73%
CC1CCN(C(=O)Oc2c(Cl)cc(Cl)c3cccnc23)CC1	inactive: 2.33%
CC(C)=N/N=C(\N)N[N+](=O)[O-]	inactive: 6.36%
CC(C)c1nc(Nc2ccccc2)n(P(=O)(N(C)C)N(C)C)n1	inactive: 2.74%
CN(C)C(=O)OCCc1n(C)cc[n+]1C	inactive: -1.93%
COP1(=S)c2c(C)nn(CCC#N)c2N=C(c2ccc(F)cc2)N1C (centres undefined)	inactive: 9.18%
O=C(O)C(=O)c1ccc(N(CCCl)CCCl)cc1	inactive: 12.9%
O=C(COc1ccccc1)OC1CN2CCC1CC2 (centres undefined)	inactive: 3.34%
O=C(Nc1ccncc1[N+](=O)[O-])c1ccc([N+](=O)[O-])cc1[N+](=O)[O-]	inactive: 6.81%
O=C(OC1CN2CCC1CC2)c1cccc([N+](=O)[O-])c1 (centres undefined)	inactive: 1.87%
CSc1ccc(Nc2c([N+](=O)[O-])cc([N+](=O)[O-])cc2[N+](=O)[O-])cc1	inactive: 0.581%
CCOC(=O)c1ccc(NC(=O)C(C)(CCl)SC)cc1 (centres undefined)	inactive: -2.13%
CCC(C)N(CC(C)C)C(=S)SC(NC(C)=O)C(Cl)(Cl)Cl (centres undefined)	inactive: 2.37%
